# Molecular target: RIPK3 (Homo sapiens (Human), UniProt Q9Y572)
# The chains behind the UniProt entries cited, without tags or fusion partners.
# UniProt Q9Y572, whole entry: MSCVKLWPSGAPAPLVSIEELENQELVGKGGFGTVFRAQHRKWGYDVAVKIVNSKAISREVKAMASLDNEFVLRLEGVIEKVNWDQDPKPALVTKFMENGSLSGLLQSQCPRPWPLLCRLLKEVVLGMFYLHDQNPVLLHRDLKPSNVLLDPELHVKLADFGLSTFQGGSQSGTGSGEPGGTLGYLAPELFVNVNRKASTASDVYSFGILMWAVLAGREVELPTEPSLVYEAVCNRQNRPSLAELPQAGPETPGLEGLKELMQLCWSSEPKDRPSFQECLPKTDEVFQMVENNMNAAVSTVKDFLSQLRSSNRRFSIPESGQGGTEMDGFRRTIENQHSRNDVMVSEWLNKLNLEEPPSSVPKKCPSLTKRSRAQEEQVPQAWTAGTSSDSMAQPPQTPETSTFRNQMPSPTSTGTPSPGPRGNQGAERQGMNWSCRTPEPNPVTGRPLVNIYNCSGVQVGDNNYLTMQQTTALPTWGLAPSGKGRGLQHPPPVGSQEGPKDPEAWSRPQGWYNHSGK
# Test: RIPK3 HTRF Kinase Assay
# Assay type: binding
# Details: read-out: IC50 for Inhibition of RIPK3; RIPK3 1 nM; HTRF probe 23 nM; 60 min at room temperature
row,Compound,IC50
1,CCCCn1c2c(c(-c3ccc(F)cc3)c1-c1ccncc1)C(=O)NCC2,31 to 100 nM
2,O=C1NCCc2c1c(-c1ccc(F)cc1)c(-c1ccncc1)n2C1C=CCCC1 (stereo not drawn),31 to 100 nM
3,Nc1cc(-c2c(-c3ccc(F)cc3)c3c(=O)[nH]ccc3n2Cc2ccc(C(F)(F)F)cc2F)ccn1,< 30 nM
4,CCNc1cc(-c2c(-c3ccc(F)cc3)c3c(n2Cc2ccc(C(F)(F)F)cc2F)CCNC3=O)ccn1,100 to 15000 nM

# Second part, the compound after the results:
row,IC50,Compound
1,< 30 nM,Cc1ccc(-c2c3c(n(Cc4ccc(F)cc4C#N)c2-c2ccncc2)CCNC3=O)s1
2,100 to 15000 nM,CC(C)NC(=O)Nc1cc(-c2c(-c3ccc(F)cc3)c3c(n2CC2CCOCC2)CCNC3=O)ccn1
3,31 to 100 nM,CC(C)(C)OC(=O)Nc1cc(-c2c(-c3ccc(F)cc3)c3c(=O)[nH]ccc3n2Cc2ccc(C(F)(F)F)cc2F)ccn1
4,< 30 nM,O=C1NCCc2c1c(-c1ccc(F)cc1)c(-c1ccnc(NC3CC3)c1)n2Cc1ccc(C(F)(F)F)cc1F
5,< 30 nM,O=C(Nc1cc(-c2c(-c3ccc(F)cc3)c3c(=O)[nH]ccc3n2Cc2ccc(C(F)(F)F)cc2F)ccn1)C1CC1

# Source: patent publication US10301306B2, “Substituted dihydro-1H-pyrrolo[3,2-c]pyridin-4(5H)-ones as RIPK3 inhibitors” (BRISTOL-MYERS SQUIBB COMPANY, priority 2014, dated 2019)
